# Values of other authors, collected in patent US20100179162A1, “Crystal forms of 4-[6-methoxy-7(3-piperidin-1-yl-propoxy) quinazoline-4yl) piperazine-1-carboxylic acid (4-isopropoxyphenyl)-amide” (Millennium Pharmaceuticals , Inc., priority 2005, published 2010).
# Tested on: human FLT-3/ITD-positive AML cancer cells
# Conditions: preclinical studies
compound,measurement,value
"COc1cc2c(N3CCN(C(=O)Nc4ccc(OC(C)C)cc4)CC3)ncnc2cc1OCCCN1CCCCC1 [the Compound, 4-[6-methoxy-7-(3-piperidin-1-yl-propoxy)quinazolin-4-yl]piperazine-1-carboxylic acid (4-isopropoxyphenyl)-amide]",killing of human FLT-3/ITD-positive AML cancer cells,selectively killed
